This is an account of results in patent publication US9814918B2, “Microbial deactivation of explosive compositions” (dated 2017).

For one series, the system named is Pseudomonas sp. BB13. As to the kind of experiment: Induction of nitroglycerin-degrading activity in Pseudomonas sp. BB13. Conditions: 24 h in Luria Broth; 0.25 mM NEM, 0.5 mM MD, 1 mM DMFU, 4 mM DEME, DEMO, DMMO, 0.5 mM GTN, PETN, TNT; NADPH.
In a further series the test system is mixed soil culture. As to the kind of experiment: Induction of nitroglycerin-degrading activity in a mixed soil culture. Conditions: 24 h in Luria Broth, 1% w/v soil slurry, 0.5 mM GTN, PETN, TNT, NEM, 0.25 mM MD, 1 mM DMFU, 4 mM DEME, 1 mM 3HC, TPBO, TBHQ, DMME; for nitroglycerin-degrading activity of cell-free extract: NADPH.
Series [1] relates to Klebsiella pneumoniae BB6. As to the kind of experiment: Induction of nitroglycerin-degrading activity in Klebsiella pneumoniae BB6. Particulars: 24 h in Luria Broth; 0.5 mM NEM, 0.5 mM MD, 1 mM DMFU, 4 mM DEME, DEMO, DMMO, 0.5 mM GTN, PETN, TNT; NADPH.
Series [2] concerns Gibberella moniliformis CD611. As to the kind of experiment: Induction of nitroglycerin-degrading activity in Gibberella moniliformis CD611.
Series [3] concerns Agrobacterium tumifaciens PD31. As to the kind of experiment: Induction of nitroglycerin-degrading activity in Agrobacterium tumifaciens PD31. Conditions: 24 h in Luria Broth, 0.5 mM NEM, 0.25 mM MD, 1 mM DMFU, 4 mM DEME, DEMO, DMMO, 0.5 mM GTN, PETN, TNT; for nitroglycerin-degrading activity of cell-free extract: NADH.
The test system of series [4] is Agrobacterium tumifaciens AGL-1. Nature of the series: Induction of nitroglycerin-degrading activity in Agrobacterium tumifaciens AGL-1. Conditions: 24 h in Luria Broth; 0.25 mM NEM, 0.125 mM MD, 1 mM DMFU, 4 mM DEME, DEMO, DMMO, 0.5 mM GTN, PETN, TNT; NADH.
Another series relates to Escherichia coli DH5α. Nature of the series: Induction of nitroglycerin-degrading activity in Escherichia coli DH5α (nitrite release by cell-free extracts). Conditions: 24 h in Luria Broth; 0.25 mM NEM, 0.25 mM MD, 1 mM DMFU, 4 mM DEME, DEMO, DMMO, 0.5 mM GTN, PETN, TNT; NADPH.

Only a part of the results on these compounds is given; other tests are left out. Where only a bound is given, the exact number is not on record here.

In the case of `O=[N+]([O-])OCC(CO[N+](=O)[O-])(CO[N+](=O)[O-])CO[N+](=O)[O-]`, the “nitroglycerin-degrading activity of cell-free extract” value is <0.10 U/g in the series with Pseudomonas sp. BB13; 0.38 U/g in the series with mixed soil culture; <0.10 U/g in series [1]; <0.10 U/g in series [2] (29 h in Luria Broth, 0.5 mM GTN, PETN, 1 mM DMFU, 4 mM DEME, 1 mM TPBO, TBHQ, DMME, NADPH); 12 U/g in series [3]; 0.14 U/g in series [4]. In addition, the “nitroglycerin-degrading activity of cell-free extract” value in the series on Escherichia coli DH5α is listed as 0.26 U/g. The “Fold-Induction relative to the control” value in the series with mixed soil culture is 0.63 fold; in series [3], 0.64 fold.
Consider `O=[N+]([O-])OCC(CO[N+](=O)[O-])O[N+](=O)[O-]`, for which the “Fold-Induction relative to the control” value is 1.1 fold in the series on mixed soil culture and 1.0 fold in series [3]. Besides, the results for the “nitroglycerin-degrading activity of cell-free extract” value (with mixed soil culture; in series [4]; in the series on Escherichia coli DH5α) were 0.68 U/g, 0.10 U/g and 0.44 U/g, respectively.
For the compound `Cc1c([N+](=O)[O-])cc([N+](=O)[O-])cc1[N+](=O)[O-]`, the “nitroglycerin-degrading activity of cell-free extract” value is <0.10 U/g in the series with Pseudomonas sp. BB13; 0.49 U/g in the series on mixed soil culture; 0.22 U/g in series [1]; 27 U/g in series [3]; 3.8 U/g in series [4]; 3.4 U/g in the series on Escherichia coli DH5α. For the same compound, the “Fold-Induction relative to the control” value in the series with mixed soil culture is listed as 0.81 fold. Moreover, in series [2] (0.5 mM TNT, 0.5 mM NEM, 0.25 mM MD, 1 mM 3HC, 29 h), the “growth of G. moniliformis CD611 in the presence of the compound” value is recorded as “Growth was inhibited”.
